This note sets out measurements from publication PMC3409642 (Pharmaceutical research, 2012).

The assay has as its target T1, UGT1A9 (Homo sapiens, UniProt O60656).
T1 sequence (O60656 26-530): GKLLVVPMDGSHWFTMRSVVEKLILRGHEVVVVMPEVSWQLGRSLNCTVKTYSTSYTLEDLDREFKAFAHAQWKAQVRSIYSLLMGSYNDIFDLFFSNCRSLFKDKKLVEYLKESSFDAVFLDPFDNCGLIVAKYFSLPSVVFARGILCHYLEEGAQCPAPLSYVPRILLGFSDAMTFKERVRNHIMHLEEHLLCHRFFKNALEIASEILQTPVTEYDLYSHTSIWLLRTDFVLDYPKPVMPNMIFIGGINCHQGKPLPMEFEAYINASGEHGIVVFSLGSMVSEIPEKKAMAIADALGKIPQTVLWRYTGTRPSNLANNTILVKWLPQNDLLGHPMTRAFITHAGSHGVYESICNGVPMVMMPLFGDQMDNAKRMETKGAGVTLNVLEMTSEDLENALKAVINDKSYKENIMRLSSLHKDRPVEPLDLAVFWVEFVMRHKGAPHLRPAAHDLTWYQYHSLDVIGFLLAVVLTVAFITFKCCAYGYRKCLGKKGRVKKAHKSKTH
Description: Kinetic profiling of glucuronidation by expressed human UGT1A9. The settings on record: pH 7.4.

Consider `Oc1ccc(F)cc1` [compound 115, 4-Fluorophenol], for which the Vmax amounted to 1680 pmol/mg/min.
Turning to `COC(=O)c1ccc(O)cc1` [compound 132, Methyl-4-hydroxybenzoate], the Vmax came out at 5454 pmol/mg/min.

A word on the Vmax: it is the rate approached at saturating substrate.
